Reference: patent US20260382581A1, “COMPOSITIONS COMPRISING CYTISINE IN THE TREATMENT AND/OR PREVENTION OF ADDICTION IN SUBJECTS IN NEED THEREOF” (published 2026)

Assay: claude: adverse events, incl. those leading to dose reduction, interruption or discontinuation
Conditions: Safety Set, N = 106
Description: Cytisinicline was well tolerated and no serious adverse events were reported. Similar rates of adverse events (AE's) were observed between treatment arms (54.7% in the placebo arm vs. 50.9% in the cytisinicline arm). The most commonly reported (>5%) AEs in the placebo arm were anxiety, headache, upper respiratory tract infection, nausea, and Covid-19 infection. In the cytisinicline arm, >5% AEs reported were sleep disturbances, anxiety, headache, fatigue, and upper respiratory tract infection.
A second measurement consisted of biochemically verified continuous vaping abstinence at any time during treatment, with vaping abstinence at Week 3-6 or Week 6-9 for of cytisinicline treatment vs placebo. 7-day point prevalence rates were compared for vaping abstinence (Week 2 to 12) (FIG. 62). An additional measurement included reduction in daily vaping as measured by cotinine, where cytisinicline treatment vs placebo for a reduction in nicotine vaping using weekly quantitative cotinine levels from Week 2 to Week 12. Safety was assessed by adverse effects and serious adverse effects, considering number, severity, and attribution to study drug. Early beneficial effect was observed and continued throughout the 12 weeks with some weeks at or close to statistical significance (weeks 4, 6, 7, 8, 9, and 12) (FIGS. 63-65). Cotinine values less than 1 were converted to 1 due to extreme asymmetry (FIG. 65)
Adverse Events are coded using MedDRA version 23.1.

O=c1cccc2n1C[C@@H]1CNC[C@H]2C1
TEAE: Concussion, subjects: 0 n | TEAE: Constipation, percent: (1.9) % | TEAE: Constipation, subjects: 2 n | TEAE: Decreased appetite, percent: (0.9) % | TEAE: Decreased appetite, subjects: 1 n | TEAE: Depressed mood, subjects: 0 n | TEAE: Depression, subjects: 0 n | TEAE: Dermatitis contact, percent: (0.9) % | TEAE: Dermatitis contact, subjects: 1 n | TEAE: Disturbance in attention, percent: (0.9) % | TEAE: Disturbance in attention, subjects: 1 n | TEAE: Dizziness, percent: (2.8) % | TEAE: Dizziness, subjects: 3 n | TEAE: Dry mouth, percent: (1.9) % | TEAE: Dry mouth, subjects: 2 n | TEAE: Dyspepsia, percent: (0.9) % | TEAE: Dyspepsia, subjects: 1 n | TEAE: Ear infection, subjects: 0 n | TEAE: Eye pruritus, percent: (0.9) % | TEAE: Eye pruritus, subjects: 1 n | TEAE: Fatigue, percent: (5.7) % | TEAE: Fatigue, subjects: 6 n | TEAE: Female sterilisation, percent: (0.9) % | TEAE: Female sterilisation, subjects: 1 n | TEAE: Gastroenteritis norovirus, subjects: 0 n | TEAE: Gastroenteritis viral, subjects: 0 n | TEAE: Gastroenteritis, percent: (1.9) % | TEAE: Gastroenteritis, subjects: 2 n | TEAE: Gout, percent: (0.9) % | TEAE: Gout, subjects: 1 n | TEAE: Headache, percent: (6.6) % | TEAE: Headache, subjects: 7 n | TEAE: Hot flush, percent: (0.9) % | TEAE: Hot flush, subjects: 1 n | TEAE: Hyperhidrosis, subjects: 0 n | TEAE: Increased appetite, percent: (0.9) % | TEAE: Increased appetite, subjects: 1 n | TEAE: Influenza, percent: (1.9) % | TEAE: Influenza, subjects: 2 n | TEAE: Insomnia, percent: (10.4) % | TEAE: Insomnia, subjects: 11 n | TEAE: Irritability, percent: (2.8) % | TEAE: Irritability, subjects: 3 n | TEAE: Menorrhagia, percent: (0.9) % | TEAE: Menorrhagia, subjects: 1 n | TEAE: Migraine, percent: (0.9) % | TEAE: Migraine, subjects: 1 n | TEAE: Musculoskeletal chest pain, percent: (0.9) % | TEAE: Musculoskeletal chest pain, subjects: 1 n | TEAE: Nasal congestion, subjects: 0 n | TEAE: Nasopharyngitis, subjects: 0 n | TEAE: Nausea, percent: (4.7) % | TEAE: Nausea, subjects: 5 n | TEAE: Neck pain, percent: (1.9) % | TEAE: Neck pain, subjects: 2 n | TEAE: Oropharyngeal pain, percent: (1.9) % | TEAE: Oropharyngeal pain, subjects: 2 n | TEAE: Otitis media, subjects: 0 n | TEAE: Pain in jaw, subjects: 0 n | TEAE: Panic attack, percent: (1.9) % | TEAE: Panic attack, subjects: 2 n | TEAE: Pelvic pain, percent: (0.9) % | TEAE: Pelvic pain, subjects: 1 n | TEAE: Post viral fatigue syndrome, subjects: 0 n | TEAE: Pregnancy, subjects: 0 n | TEAE: Procedural anxiety, percent: (0.9) % | TEAE: Procedural anxiety, subjects: 1 n | TEAE: Pyrexia, subjects: 0 n | TEAE: Restless legs syndrome, percent: (0.9) % | TEAE: Restless legs syndrome, subjects: 1 n | TEAE: Sensitive skin, percent: (0.9) % | TEAE: Sensitive skin, subjects: 1 n | TEAE: Sinus congestion, percent: (0.9) % | TEAE: Sinus congestion, subjects: 1 n | TEAE: Sinusitis, subjects: 0 n | TEAE: Stress, percent: (0.9) % | TEAE: Stress, subjects: 1 n | TEAE: Thirst, percent: (0.9) % | TEAE: Thirst, subjects: 1 n | TEAE: Tooth extraction, subjects: 0 n | TEAE: Trismus, subjects: 0 n | TEAE: Upper respiratory tract infection, percent: (5.7) % | TEAE: Upper respiratory tract infection, subjects: 6 n | TEAE: Urinary tract infection, percent: (0.9) % | TEAE: Urinary tract infection, subjects: 1 n | TEAE: Vasectomy, percent: (0.9) % | TEAE: Vasectomy, subjects: 1 n | TEAE: Vomiting, percent: (0.9) % | TEAE: Vomiting, subjects: 1 n | TEAE: Wisdom teeth removal, percent: (0.9) % | TEAE: Wisdom teeth removal, subjects: 1 n | Mild TEAE, events (Severity): 92 Events | Mild TEAE, percent of subjects (Severity): 47.2% | Mild TEAE, subjects (Severity): 50 n | Moderate TEAE, events (Severity): 26 Events | Moderate TEAE, percent of subjects (Severity): 15.1% | Moderate TEAE, subjects (Severity): 16 n | Severe TEAE, events (Severity): 1 Events | Severe TEAE, percent of subjects (Severity): 0.9% | Severe TEAE, subjects (Severity): 1 n | At Least One TEAE, percent (by preferred term): (50.9) % | At Least One TEAE, subjects (by preferred term): 54 n | At Least One TEAE, percent of subjects (overall summary): 50.9% | At Least One TEAE, subjects (overall summary): 54 n | TEAE, events (overall summary): 119 Events
